Consider one compound from US8501770B2 (ArQule, Inc., priority 2009, dated 2013).

Sequences of proteins named here, by UniProt entry; tags and fusion partners are left off. A change or cut given only in a name is not applied to a line headed by its entry.
UniProt P31749: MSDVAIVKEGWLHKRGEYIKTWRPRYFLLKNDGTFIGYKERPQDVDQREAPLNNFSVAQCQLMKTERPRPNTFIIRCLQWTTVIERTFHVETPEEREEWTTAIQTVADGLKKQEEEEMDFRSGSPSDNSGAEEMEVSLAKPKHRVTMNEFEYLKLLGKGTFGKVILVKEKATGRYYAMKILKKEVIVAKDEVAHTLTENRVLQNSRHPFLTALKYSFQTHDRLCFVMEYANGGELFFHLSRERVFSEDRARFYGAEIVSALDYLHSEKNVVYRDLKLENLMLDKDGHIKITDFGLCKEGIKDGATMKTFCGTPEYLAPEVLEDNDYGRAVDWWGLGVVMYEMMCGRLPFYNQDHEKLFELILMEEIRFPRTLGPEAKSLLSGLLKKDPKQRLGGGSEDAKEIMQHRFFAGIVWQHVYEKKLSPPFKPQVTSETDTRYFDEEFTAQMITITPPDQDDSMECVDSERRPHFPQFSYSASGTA

In the experiment the target is Full-length inactive AKT1 (Homo sapiens, UniProt P31749). Put plainly: Inactive Akt HTRF Assay (Akt1). As to conditions: read-out: Akt1 IC50, (HTRF assay); values marked with "*": HTRF assay. For orientation: In TR-FRET formats the signal depends on donor and acceptor labels being close together.

With `NCc1ccc(-n2c(-c3cccnc3N)nc3cc(Br)cnc32)cc1` [Example 6, (3-(3-(4-aminomethyl)phenyl)-6-bromo-3H-imidazolo[4,5-b]pyridin-2-yl)pyridine-2-amine hydro chloride], the IC50 was determined as 68.2 µM.

Broadly, the IC50 is the midpoint of a concentration-inhibition curve.
